Test results published in paper PMC8192900 (2021).

Chains of the proteins cited; added tags and fusions are not shown.
UniProt P23975, whole entry: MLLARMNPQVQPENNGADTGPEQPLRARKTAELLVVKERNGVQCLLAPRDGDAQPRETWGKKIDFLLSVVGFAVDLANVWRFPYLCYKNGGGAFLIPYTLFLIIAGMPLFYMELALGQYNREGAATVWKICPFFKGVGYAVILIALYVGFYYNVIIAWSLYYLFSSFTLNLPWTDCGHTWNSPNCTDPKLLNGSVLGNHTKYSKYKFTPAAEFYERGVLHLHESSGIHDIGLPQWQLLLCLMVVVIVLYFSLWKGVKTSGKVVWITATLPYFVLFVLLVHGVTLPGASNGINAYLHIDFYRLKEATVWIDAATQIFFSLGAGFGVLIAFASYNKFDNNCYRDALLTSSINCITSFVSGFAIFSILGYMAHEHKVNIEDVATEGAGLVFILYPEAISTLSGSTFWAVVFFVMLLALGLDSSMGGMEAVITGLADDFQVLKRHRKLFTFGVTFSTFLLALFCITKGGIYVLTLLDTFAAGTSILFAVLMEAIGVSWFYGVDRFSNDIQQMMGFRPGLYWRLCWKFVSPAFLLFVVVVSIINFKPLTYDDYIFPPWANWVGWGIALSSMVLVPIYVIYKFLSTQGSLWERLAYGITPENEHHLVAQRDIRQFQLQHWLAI

Target: human norepinephrine transporter (NET, SLC6A2) (Homo sapiens, UniProt P23975)
Assay: TRACT assay: inhibitory potency of NET inhibitors (enhancement of substrate-induced response)
Format: cell-based
Settings: +dox JumpIn-NET cells, 1 h pretreatment, stimulated with 1 µM NE (EC20)

- Inhibitory potency pIC50, TRACT assay: 4.9 ± 0.1
Structure (SMILES): CC(NC(C)(C)C)C(=O)c1cccc(Cl)c1.Cl (stereo not shown) [Bupropion, bupropion hydrochloride]
